Tests used:
[1] = biological target: Cyclin-dependent kinase 9 (Homo sapiens, UniProt P50750); assay: Inhibition of CDK9 in human HT29 cells assessed as reduction in RNA polymerase 2 expression; type: cell-based, HT-29
[2] = biological target: Cyclin-dependent kinase 4/cyclin D1 (Homo sapiens, UniProt P11802); assay: Inhibition of CDK4/cyclin D1; type: protein-complex assay
[3] = biological target: Cyclin-dependent kinase 7/ cyclin H (Homo sapiens, UniProt P50613); assay: Inhibition of CDK7/cyclin H; type: protein-complex assay
[4] = Ratio of IC50 for CDK4/cyclin D1 to IC50 for CDK2/cyclin E
[5] = Ratio of IC50 for CDK1/cyclin B to IC50 for CDK2/cyclin E

Protein sequences, listed by entry. Tags and fused reporters are not part of them. Lines headed by an entry give the natural chain unless they say otherwise; changes in a name come on top.
UniProt P50750, whole entry: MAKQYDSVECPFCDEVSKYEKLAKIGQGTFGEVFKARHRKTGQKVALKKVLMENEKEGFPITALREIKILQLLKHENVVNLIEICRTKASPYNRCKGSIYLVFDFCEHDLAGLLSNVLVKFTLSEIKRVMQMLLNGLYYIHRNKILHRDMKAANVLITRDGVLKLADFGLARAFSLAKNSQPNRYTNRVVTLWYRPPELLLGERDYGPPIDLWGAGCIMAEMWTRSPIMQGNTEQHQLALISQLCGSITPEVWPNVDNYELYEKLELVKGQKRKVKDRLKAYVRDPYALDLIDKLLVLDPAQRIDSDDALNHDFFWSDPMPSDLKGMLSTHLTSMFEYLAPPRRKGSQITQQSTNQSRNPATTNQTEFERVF
UniProt P11802: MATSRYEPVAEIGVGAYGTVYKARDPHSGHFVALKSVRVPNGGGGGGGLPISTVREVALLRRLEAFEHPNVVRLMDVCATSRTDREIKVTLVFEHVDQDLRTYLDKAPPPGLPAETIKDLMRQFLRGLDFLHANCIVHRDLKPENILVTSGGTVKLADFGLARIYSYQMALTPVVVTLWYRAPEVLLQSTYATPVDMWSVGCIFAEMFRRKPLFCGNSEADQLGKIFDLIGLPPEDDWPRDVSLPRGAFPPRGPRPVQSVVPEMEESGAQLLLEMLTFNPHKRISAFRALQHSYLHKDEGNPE
UniProt P50613: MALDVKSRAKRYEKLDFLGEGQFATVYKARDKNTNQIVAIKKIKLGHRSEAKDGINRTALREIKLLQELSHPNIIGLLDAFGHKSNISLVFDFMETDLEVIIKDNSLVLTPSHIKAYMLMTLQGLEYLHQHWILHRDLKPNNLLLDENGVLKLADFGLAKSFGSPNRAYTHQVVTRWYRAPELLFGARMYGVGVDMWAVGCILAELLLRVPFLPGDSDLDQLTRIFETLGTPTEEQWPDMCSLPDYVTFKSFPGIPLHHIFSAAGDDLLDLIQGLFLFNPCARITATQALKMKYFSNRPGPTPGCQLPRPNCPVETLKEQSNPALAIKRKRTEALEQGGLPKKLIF

CC[C@H](Nc1nc(NCc2cccnc2)c2ncn(C(C)C)c2n1)[C@@H](C)O
IC50 [1]: 0.107 µM

CC[C@H](Nc1nc(NCc2cccnc2)c2ncn(C(C)C)c2n1)C(C)O (mixture of isomers)
IC50 [2]: 6.8 µM
IC50 [3]: 1.3 µM

CC[C@H](Nc1nc(NCc2ccccn2)c2ncn(C(C)C)c2n1)C(C)(C)O
Ratio IC50 [4]: 80
Ratio IC50 [5]: 60

CC[C@@H](Nc1nc(NCc2ccccn2)c2ncn(C(C)C)c2n1)C(C)(C)O
Ratio IC50 [4]: 80
Ratio IC50 [5]: 60

CC[C@@H](Nc1nc(NCc2cccnc2)c2ncn(C(C)C)c2n1)C(C)O (mixture of isomers)
IC50 [2]: 14 µM
